Source: ChEMBL document CHEMBL3272031, “Inhibition of dihydrofolate reductase. Structure-activity correlations of quinazolines” (J Med Chem, 1976)

Target: Dihydrofolate reductase (Rattus norvegicus) (UniProt Q920D2)

SMILES	log(1/C)
Nc1nc(N)c2ccccc2n1	4.66
Cc1c(NC(=O)Cc2ccc(Cl)cc2)ccc2nc(N)nc(N)c12	7.48
N#Cc1ccc2nc(N)nc(N)c2c1	4.92
Nc1nc(N)c2cc(CNC(=O)Cc3ccc(Cl)c(Cl)c3)ccc2n1	5.82
Nc1nc(N)c2c(Cl)c(Cl)ccc2n1	6.7
Nc1nc(N)c2c(Cl)c(NC(=O)Cc3ccc(Br)cc3)ccc2n1	7.89
Nc1nc(N)c2c(CSc3ccc4ccccc4c3)cccc2n1	8
